{"source": "patent US20230159537A1", "about": "“COMPOUND, PREPARATION METHOD THEREOF, AND USE THEREOF IN PREPARATION OF ANTI-CANCER DRUG” (TIANJIN JIKUN MEDICAL TECHNOLOGY CO., LTD., priority 2020, published 2023)", "key": {"[1]": {"tested_on": "FGFR1 and downstream signaling pathway in NCI-H1581 cells", "assay": "Western blot of FGFR1 and downstream signaling protein phosphorylation in NCI-H1581 cells", "format": "cell-based, human", "settings": "12 h"}, "[2]": {"tested_on": "FGFR2 and downstream signaling pathway in SNU-16 cells"}}, "note": "Entries after “also recorded” stand apart in the source; their conditions may differ.", "data": [{"compound": "COc1cc(OC)cc(-c2nn(CCCCCN3CCN(C(=O)/C=C/C(F)(F)F)CC3)c3ncnc(N)c23)c1", "note": "[Compound 36]", "values": [{"measurement": "phosphorylation / activation of FGFR1 in NCI-H1581 cells", "setting": "[1]; different concentrations", "result": "significantly inhibited the phosphorylation of FGFR1; also recorded: inhibits the activation of FGFR1 and a downstream signaling pathway thereof"}, {"measurement": "activation of downstream PLCγ, AKT, and ERK", "setting": "[1]; NCI-H1581 cells", "result": "inhibited the activation of downstream PLCγ, AKT, and ERK in a dose-dependent manner"}, {"measurement": "activation of downstream PLCγ, AKT, and ERK", "setting": "[2]", "result": "inhibited the activation of downstream PLCγ, AKT, and ERK in a dose-dependent manner"}]}]}
